Tested on: PC-3 tumors
Assay: In vivo efficacy in athymic nude mice bearing human xenograft prostate cancer tumor
Conditions: single i.v. injection (40 mg/kg Ptx where drug), day 60; initial volume averaged 155 mm^3

CC(=O)O[C@H]1C(=O)[C@@]2(C)[C@H]([C@H](OC(=O)c3ccccc3)[C@]3(O)C[C@H](OC(=O)[C@H](O)[C@@H](NC(=O)c4ccccc4)c4ccccc4)C(C)=C1C3(C)C)[C@]1(OC(C)=O)CO[C@@H]1C[C@@H]2O [Ptx, Paclitaxel]
mean tumor size at the end of the study: 166.2 mm^3

Reference: patent US8389012B2, “Gellan-gum nanoparticles and methods of making and using the same” (The Corporation of Mercer University, priority 2008, dated 2013)
